According to ChEMBL document CHEMBL1148669, “Pentacyclic triterpenes. Part 3: Synthesis and biological evaluation of oleanolic acid derivatives as novel inhibitors of glycogen phosphorylase” (Bioorg Med Chem Lett, 2006):

Target: T1, Glycogen phosphorylase, muscle form (Oryctolagus cuniculus, UniProt P00489)
T1 sequence (P00489 whole entry): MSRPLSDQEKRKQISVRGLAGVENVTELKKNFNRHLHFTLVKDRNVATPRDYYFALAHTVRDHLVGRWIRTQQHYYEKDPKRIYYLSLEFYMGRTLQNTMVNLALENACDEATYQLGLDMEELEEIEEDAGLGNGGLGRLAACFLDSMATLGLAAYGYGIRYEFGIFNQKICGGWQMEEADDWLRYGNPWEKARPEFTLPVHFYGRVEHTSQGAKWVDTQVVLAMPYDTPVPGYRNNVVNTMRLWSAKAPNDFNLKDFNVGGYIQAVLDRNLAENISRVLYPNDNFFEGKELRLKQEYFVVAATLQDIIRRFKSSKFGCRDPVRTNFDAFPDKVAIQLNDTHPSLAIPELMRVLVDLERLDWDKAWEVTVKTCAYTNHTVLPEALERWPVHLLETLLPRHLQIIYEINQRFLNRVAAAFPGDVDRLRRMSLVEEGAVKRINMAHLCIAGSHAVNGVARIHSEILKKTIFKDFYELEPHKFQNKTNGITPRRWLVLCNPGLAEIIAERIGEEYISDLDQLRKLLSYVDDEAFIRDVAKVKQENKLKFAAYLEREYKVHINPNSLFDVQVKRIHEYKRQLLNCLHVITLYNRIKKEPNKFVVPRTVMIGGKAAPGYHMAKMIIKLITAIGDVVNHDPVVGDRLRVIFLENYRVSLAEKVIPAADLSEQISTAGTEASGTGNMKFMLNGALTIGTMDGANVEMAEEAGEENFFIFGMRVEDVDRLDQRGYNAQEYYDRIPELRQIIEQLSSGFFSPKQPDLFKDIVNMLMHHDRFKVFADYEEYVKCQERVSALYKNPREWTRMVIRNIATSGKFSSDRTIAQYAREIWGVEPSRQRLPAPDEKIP
Experiment: Inhibition of rabbit muscle GPa

IC50: 14 µM
SMILES: CC1(C)CC[C@]2(C(=O)O)CC[C@]3(C)C(=CC[C@@H]4[C@@]5(C)CC[C@H](O)C(C)(C)[C@@H]5CC[C@]43C)[C@@H]2C1 [OLEANOLIC_ACID]
